Test results from US20260008783A1, “MODULATORS OF FSHR AND USES THEREOF” (Celmatix Inc., priority 2022, published 2026).
pIC50: −log10 of the molar value. Where two headings read alike, the source gives them in different places.

Chains of the proteins cited; added tags and fusions are not shown. Residues count along the entry.
UniProt P23945, 18-695 limits assumed: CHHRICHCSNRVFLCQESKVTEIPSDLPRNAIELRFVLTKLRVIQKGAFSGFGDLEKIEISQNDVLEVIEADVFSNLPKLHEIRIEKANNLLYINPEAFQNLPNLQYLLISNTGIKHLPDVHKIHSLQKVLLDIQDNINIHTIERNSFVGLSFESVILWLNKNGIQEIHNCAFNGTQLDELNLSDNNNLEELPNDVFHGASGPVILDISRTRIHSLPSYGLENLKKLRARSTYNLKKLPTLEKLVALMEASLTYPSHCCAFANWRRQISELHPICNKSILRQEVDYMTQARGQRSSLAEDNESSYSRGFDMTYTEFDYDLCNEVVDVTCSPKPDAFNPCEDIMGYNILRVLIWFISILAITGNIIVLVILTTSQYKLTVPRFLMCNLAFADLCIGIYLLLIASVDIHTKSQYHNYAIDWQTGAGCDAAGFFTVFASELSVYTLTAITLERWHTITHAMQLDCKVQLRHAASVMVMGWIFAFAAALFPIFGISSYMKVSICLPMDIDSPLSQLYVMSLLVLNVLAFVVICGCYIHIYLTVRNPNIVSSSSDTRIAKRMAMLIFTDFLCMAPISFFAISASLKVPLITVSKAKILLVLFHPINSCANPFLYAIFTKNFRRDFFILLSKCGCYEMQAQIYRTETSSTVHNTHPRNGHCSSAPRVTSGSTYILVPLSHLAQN

Target: Follicle Stimulating Hormone Receptor (FSHR) (Homo sapiens, UniProt P23945)
Test: HTRF cAMP agonist assay, FSHR, transiently transfected CHO-K1 cells
From the text: Example 17. HTRF cAMP Agonist Assay Protocol (for FSHR, TSHR, LHCGR)
Mammalian expression vectors designed to express either Follicle Stimulating Hormone Receptor (FSHR), Thyroid Stimulating Hormone Receptor (TSHR), or Luteinizing Hormone/Choriogonadotropin Receptor (LHCGR), were generated with an HA-tag on the N-terminus. All constructs were expressed under a human cytomegalovirus (CMV) immediate early enhancer and promoter using the pHM6 expression vector. The protein coding region was confirmed by sequence analysis to be in-frame and of the expected sequence, matching the following accession numbers: FSHR NM_000145, TSHR NM_000369, and LHCGR NM_000233.
HTRF cAMP assays were performed using Chinese Hamster Ovary (CHO-K1) cell lines transiently expressing human FSH, TSH, and LHCG receptors. 48 hours before the assay, cells were washed with PBS and then dissociated from tissue culture flasks with 0.25% trypsin. Dissociated cells were quenched in full media (F-12K Medium Corning REF #10-025-CV, 10% Avantor Seradigm FB Essence Cat #10803-034, 1% Penicillin/Streptomycin Cytiva HyClone Cat #SV30010) and then collected by centrifugation at 290×g for 5 min. Cells were resuspended in full media and dispensed into 150 mm cell culture dishes (Nest Scientific Cat #715001), at 2.3×10^6 cells/flask. 7 hours later, cells were transfected using Lipofectamine transfection reagent (Invitrogen Cat #18324020). Briefly, 60 μL of lipofectamine was dispensed into 2 mL of Opti-MEM (Gibco Cat #31985070) and incubated for 5 minutes at room temperature. Then, the mixture was added onto […] of DNA and incubated for another 20 minutes at room temperature. Cells were washed with warm (37° C.) PBS. 17.5 mL of Opti-MEM was dispensed onto the cells, followed by addition of the Opti-MEM/lipofectamine/DNA mixture. Cells were incubated overnight in a 37° C., 5% CO2 cell incubator. 17-19 hours later, Opti-MEM was aspirated off the cells and replaced with full media. Cells were incubated for another 24 hours in a 37° C., 5% CO2 cell incubator.
On the day of the assay, cells were washed with PBS and then dissociated from tissue culture flasks with 0.25% trypsin. Dissociated cells were quenched in full media and then collected by centrifugation at 290×g for 5 min. Cells were resuspended in PBS^+/+ (Corning REF #20-030-CV) to a concentration of 2×10^5 cells/mL. 10 μL/well of cells (2,000 cells/well) were dispensed into 384-well Corning plates (REF #3825), in triplicate. Cells were incubated at room temperature for 2 hours.
Example FSHR Modulator compounds were diluted in assay buffer (PBS^+/+, 0.05% BSA Sigma-Aldrich A3059, 500 μM IBMX Sigma-Aldrich 15879) to 3.5× the final assay concentration. 4 μL of test agonist was added to the cells and incubated for 1 hour at room temperature. 10 μL of cAMP detection reagents (LANCE Ultra cAMP Detection Kit PerkinElmer TRF0264) were dispensed onto the cells and plates were incubated for 2 hours at room temperature (cAMP detection reagents were made according to the PerkinElmer kit protocol). Plates were read on an Envision plate reader following PerkinElmer guidelines.
Raw data for all assays was transmitted directly from plate readers into a database for processing. All assay plates contained both positive and negative control wells to allow for data normalization and scaling. In agonist assays, negative control wells contained assay buffer and positive control wells contained […] positive control (10 nM Follicle Stimulating Hormone Sigma-Aldrich F4021, 50 nM Thyroid Stimulating Hormone Sigma-Aldrich 869006, 50 nM Luteinizing Hormone MyBioSource MBS5308806, for their respective receptors). All control wells contained DMSO at a final assay concentration that matched the test compound wells. […]
Percent control data were analyzed by non-linear regression with a sigmoidal dose response algorithm in the database to yield potency and efficacy data.

[1] = read-out: IC50 FSHR LANCE CAMP, CHO-K1 cells transiently expressing human FSHR, tested form: TFA
[2] = read-out: IC50 FSHR LANCE CAMP, CHO-K1 cells transiently expressing human FSHR

Structure (SMILES) | pIC50 [1] | pIC50 [2]
COc1cc2c(cc1-c1ccn(C)n1)-c1c(c(C(=O)N(C)C(C)(C)C)nn1-c1cc(Cl)cc(Cl)c1)S(=O)(=O)C2 | 6.50 | 
COc1cc2c(cc1-c1cncc(C#N)c1)-c1c(c(C(=O)N(C)C(C)(C)C)nn1-c1cc(Cl)cc(Cl)c1)CO2 | 7.29 | 
COc1cc2c(cc1-c1ccn(C)n1)-c1c(c(C(=O)N(C)C(C)(C)C)nn1-c1cc(Cl)cc(Cl)c1)[S+]([O-])C2 (stereo not drawn) | 6.24 | 
COc1cc2c(cc1-c1ccn(C)n1)-c1c(c(C(=O)N3CCOCC3(C)C)nn1-c1cc(Cl)cc(Cl)c1)S(=O)(=O)C2 |  | 6.43
COc1cc2c(cc1-c1cncc(C#N)c1)-c1c(c(C(=O)N(C)C(C)(C)C)nn1-c1cc(Cl)cc(Cl)c1)S(=O)(=O)C2 | 7.12 | 
COc1cc2c(cc1Br)-c1c(c(C(=O)N(C)C(C)(C)C)nn1-c1cc(Cl)cc(Cl)c1)CO2 |  | 5.95
COc1cc2c(cc1-c1cncc(C#N)c1)-c1c(c(C(=O)N3CCOCC3(C)C)nn1-c1cc(Cl)cc(Cl)c1)CO2 | 7.74 | 
COc1cc2oc3c(C(=O)N(C)C(C)(C)C)nn(-c4ccsc4)c3c2cc1-c1ccn(C)n1 | 5.52 | 
COc1cc2oc3c(C(=O)N(C)C(C)(C)C)n(-c4ccsc4)nc3c2cc1-c1ccn(C)n1 | 5.31 | 
COc1cc2c(cc1Br)-c1c(c(C(=O)N3CCOCC3(C)C)nn1-c1cc(Cl)cc(Cl)c1)CO2 |  | 6.11

More lines, in order of rising pIC50 [1], values ahead:

pIC50 [1] | pIC50 [2] | Structure (SMILES)
7.83 |  | COc1cc2c(cc1-c1cncc(C(N)=O)c1)-c1c(c(C(=O)N(C)C(C)(C)C)nn1-c1cc(Cl)cc(Cl)c1)CO2
7.93 |  | COc1cc2c(cc1-c1cncc(C(N)=O)c1)-c1c(c(C(=O)N3CCOCC3(C)C)nn1-c1cc(Cl)cc(Cl)c1)S(=O)(=O)C2
8.02 |  | COc1cc2c(cc1-c1cncc(C(=N)NO)c1)-c1c(c(C(=O)N(C)C(C)(C)C)nn1-c1cc(Cl)cc(Cl)c1)CO2
8.38 |  | COc1cc2c(cc1-c1cncc(C(N)=O)c1)-c1c(c(C(=O)N3CCOCC3(C)C)nn1-c1cc(Cl)cc(Cl)c1)CO2
8.54 |  | COc1cc2c(cc1-c1cncc(C(N)=O)c1)-c1c(c(C(=O)N(C)C(C)(C)C)nn1-c1cc(Cl)cc(Cl)c1)S(=O)(=O)C2
